Source: patent publication US12100485B2, “Machine learning and molecular simulation based methods for enhancing binding and activity prediction” (The Board of Trustees of the Leland Stanford Junior …, priority 2018, dated 2024)

Chains of the proteins cited; added tags and fusions are not shown.
UniProt P42866, whole entry: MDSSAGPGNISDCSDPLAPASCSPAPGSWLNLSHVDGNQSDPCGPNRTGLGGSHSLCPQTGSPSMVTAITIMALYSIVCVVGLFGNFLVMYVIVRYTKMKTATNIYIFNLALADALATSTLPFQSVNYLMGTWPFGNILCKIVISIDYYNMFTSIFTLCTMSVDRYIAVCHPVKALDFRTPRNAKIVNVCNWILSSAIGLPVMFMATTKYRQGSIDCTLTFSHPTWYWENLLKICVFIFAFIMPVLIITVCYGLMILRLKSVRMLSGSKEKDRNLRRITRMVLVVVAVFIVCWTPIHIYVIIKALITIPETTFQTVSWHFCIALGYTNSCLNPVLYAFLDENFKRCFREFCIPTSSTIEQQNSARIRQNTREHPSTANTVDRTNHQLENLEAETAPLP

Tests used:
[1] = target: T1, MOR-1 (Mus musculus, UniProt P42866); experiment: Competition binding against 125I-IBNtxA in membranes from CHO cells expressing cloned opioid receptor; details: single dose 10 μM concentration
Protocol: (§1) Thirty available, highest scoring compounds were experimentally assayed. […] One compound, FMP4, has a unique structure: no basic amine or phenol. In further binding assays in opioid transfected cell lines, FMP4 has a binding affinity of 3217±153 nM, 2503±523 nM, and 8143±1398 nM at MOR-1, KOR-1, and DOR-1 respectively. FMP4 is also a weak MOR-1 partial agonist in [35S]GTPγS functional assays. FMP4 is distinct from known opioid agonists and antagonists, with a maximum Tanimoto score of 0.44 compared to other known agonists and antagonists for the μOR. FMP4-like compounds in the same data set were characterized in binding assays and two compounds FMP1 and FMP16 show <10 μM affinity at MOR-1.
Each panel is a representative experiment that has been independently replicated at least three times. FIGS. 8A-8D illustrate structures and molecular weights for FMP1-FMP32.
Error bars represent the SEM of triplicate samples. Error bars that cannot be seen are smaller than the size of the symbol. FMP4 had 3217±153 nM, 2503±523 nM and 8143±1398 nM affinity at MOR-1, KOR-1 and DOR-1 respectively.

[2] = target: T1, MOR-1; experiment: [35S]GTPγS functional assays
Protocol: as §1

| Structure (SMILES) | Inhibition of 125IBNtxA specific binding at MOR-1 [1] | MOR-1 functional activity in [35S]GTPγS assays [2] |
| --- | --- | --- |
| Cc1ccccc1OCCCCCN1CCCCC1 | 30% | – |
| Cc1ccc(OCCCCCCc2c(C)n[nH]c2C)cc1 | 30% | – |
| Cc1ccccc1OCCCCCCc1c(C)n[nH]c1C | 30% | weak MOR-1 partial agonist |
